# Only a part is listed here, and it is no random draw. Activity calls are given as the source filed them. Rule as the data show it: active = activation above about 47%; inactive = the rest.
# Sequences of proteins named here, by UniProt entry; tags and fusion partners are left off. A change or cut given only in a name is not applied to a line headed by its entry.
# UniProt P35869: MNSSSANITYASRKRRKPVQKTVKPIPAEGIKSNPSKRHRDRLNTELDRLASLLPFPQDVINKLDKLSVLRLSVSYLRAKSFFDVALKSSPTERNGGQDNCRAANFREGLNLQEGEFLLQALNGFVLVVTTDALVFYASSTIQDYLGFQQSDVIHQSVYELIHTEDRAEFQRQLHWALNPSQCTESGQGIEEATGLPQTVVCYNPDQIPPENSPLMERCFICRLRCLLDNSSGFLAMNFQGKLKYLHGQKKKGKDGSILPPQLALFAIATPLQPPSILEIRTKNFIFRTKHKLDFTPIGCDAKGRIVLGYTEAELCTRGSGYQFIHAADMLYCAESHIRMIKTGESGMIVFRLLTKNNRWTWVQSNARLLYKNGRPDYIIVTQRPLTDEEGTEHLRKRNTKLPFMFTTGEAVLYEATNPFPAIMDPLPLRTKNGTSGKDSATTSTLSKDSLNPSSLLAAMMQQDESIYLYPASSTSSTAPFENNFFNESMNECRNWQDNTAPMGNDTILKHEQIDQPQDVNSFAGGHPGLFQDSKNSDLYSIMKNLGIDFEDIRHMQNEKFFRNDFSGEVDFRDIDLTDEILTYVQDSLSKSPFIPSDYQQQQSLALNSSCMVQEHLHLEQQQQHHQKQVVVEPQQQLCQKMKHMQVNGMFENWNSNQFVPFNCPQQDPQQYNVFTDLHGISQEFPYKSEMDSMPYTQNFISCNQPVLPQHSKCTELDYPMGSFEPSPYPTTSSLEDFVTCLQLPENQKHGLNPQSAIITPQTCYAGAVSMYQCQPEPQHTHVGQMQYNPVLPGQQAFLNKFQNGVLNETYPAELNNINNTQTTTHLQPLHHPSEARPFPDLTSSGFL
# Target: Aryl hydrocarbon receptor (Homo sapiens) (UniProt P35869)
# Assay: AHR activators, primary screen, cell-based, luminescence, luciferase reporter, human (AID 2796);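 also: 0% = vehicle wells and 100% = reference agonist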
# Settings: AHR-responsive luciferase reporter cells, at 5 µM, stronger effect = higher value
row,SMILES,activation
1,N#CCCN(C(=O)COC(=O)C(O)(c1ccccc1)c1ccccc1)c1ccc(F)cc1,inactive: -3.14%
2,CCOP1(=S)c2c(C)nn(CCC#N)c2N=C(c2ccc(F)cc2)N1C (stereo unspecified),inactive: -0.36%
3,CN(C(=O)Cc1ccccc1)[C@@H]1CC[C@]2(CCCO2)C[C@H]1N1CCCC1,inactive: 0.01%
4,CN(C)C(=O)c1cc([N+](=O)[O-])cc2c1-c1c(cc([N+](=O)[O-])cc1[N+](=O)[O-])C2=O,inactive: 2.34%
5,O=[N+]([O-])c1ccc2c(c1)nnn2O,inactive: 0.69%
6,CN(C(=O)Cc1ccc(Cl)c(Cl)c1)[C@H]1CC[C@@]2(CCCO2)C[C@@H]1N1CCCC1,inactive: -1.19%
7,NC(=O)Nc1ccc([As](=O)(O)O)cc1,inactive: 0.51%
8,Nc1ccccc1[As](=O)(O)c1ccccc1,inactive: -0.65%
9,O=C(O)COc1ccc([As](=O)(O)O)cc1[N+](=O)[O-],inactive: 0.22%
10,CCOP1(=S)c2c(C)nn(CCC#N)c2N=C(c2ccccc2F)N1C (stereo unspecified),inactive: 0.21%
11,O=P(Nc1nccs1)(c1ccccc1)c1nc2ccccc2s1 (stereo unspecified),inactive: 8.55%
12,O=P(Nc1nccs1)(Oc1ccccc1)Oc1ccccc1,inactive: -0.56%
13,CS(=O)(=O)c1cc([N+](=O)[O-])c2no[n+]([O-])c2c1,inactive: 0.54%
14,COc1cc(C2NCCC3(OCCO3)C2(C)C)cc(OC)c1OC (stereo unspecified),inactive: 2.31%
15,CCOP(=O)(Nc1cccc2ccccc12)OCC,inactive: 4.11%
16,Nc1cccc2c([As](=O)(O)O)cccc12,inactive: -1.25%
17,Cc1ccc(NCCc2c([N+](=O)[O-])cc([N+](=O)[O-])cc2[N+](=O)[O-])cc1,inactive: 3.29%
18,CCCOP(=S)(Nc1nc(N)cc(=O)[nH]1)OCCC,inactive: -0.46%
19,O=[As](O)(c1cccc(O)c1)c1cccc(O)c1,inactive: -2.67%
20,Cc1cccc(OCC(=O)OC2CN3CCC2CC3)c1 (stereo unspecified),inactive: 0.93%
21,O=C(OC1CN2CCC1CC2)c1ccc(Cl)cc1 (stereo unspecified),inactive: -0.55%
22,COc1cc(C(=O)NCC2(N3CCOCC3)CCCCC2)cc(Cl)c1OC(C)C,inactive: 11%
23,O=[As](O)(O)c1cccnc1,inactive: -0.61%
24,CS(=O)(=O)c1ccc(Cl)c(NC(=O)COC(=O)C(O)(c2ccccc2)c2ccccc2)c1,inactive: -1.08%
25,CC(C)/C=N\N=C(\N)N[N+](=O)[O-],inactive: 6.2%
26,CN(C(=O)Cc1ccc(Cl)c(Cl)c1)[C@@H]1CCCC[C@H]1N1CCCC1,inactive: -3.31%

row,SMILES,activation
1,O=[As](O)(c1ccccc1Br)c1ccccc1Br,inactive: 0.41%
2,CC1(CBr)Cn2c(nc3ccccc3c2=O)S1 (stereo unspecified),inactive: 0.56%
3,COc1ccccc1CNC(=O)COC(=O)C(O)(c1ccccc1)c1ccccc1,inactive: -0.72%
4,Clc1n[nH]nc1-c1nn[nH][15n]1,inactive: 0.55%
5,CC(C)(C)C(=O)NC(Sc1ncccn1)C(Cl)(Cl)Cl (stereo unspecified),inactive: -0.84%
6,O=P1(Nc2ccccn2)COc2ccccc2OC1,inactive: -3.65%
7,CCC1=CC2Cc3nc4ccc(Cl)cc4c(N)c3C(C1)C2 (stereo unspecified),inactive: 6.57%
8,CCOP(=O)(NC(=NC(C)c1ccccc1)NC(C)c1ccccc1)OCC (stereo unspecified),inactive: -1.25%
9,CN(CCCl)Cc1cc(Cl)c(NC2=NCCN2)c(Cl)c1,inactive: -3.42%
10,CCOP(=O)(Nc1ccc(C)cn1)OCC,inactive: 4.2%
11,Nc1cccc([As](=O)(O)c2ccccc2)c1,inactive: 1.04%
12,O=P1(Nc2ccc(Br)cn2)COc2ccccc2OC1,inactive: 0.31%
13,NS(=O)(=O)c1cccc(NC(=O)COC(=O)C(O)(c2ccccc2)c2ccccc2)c1,inactive: 8.13%
14,O=[As](O)(c1cccs1)c1cccs1,inactive: 3.69%
15,Cc1ccc(OCC(=O)OC2CN3CCC2CC3)cc1 (stereo unspecified),inactive: 1.68%
16,O=P1(Nc2ncccn2)COc2ccccc2OC1,inactive: 1.41%
17,CN(C)C1(CNC(=O)c2ccc(S(C)(=O)=O)cc2)CCCCC1,inactive: 1.07%
18,O=C(/C=C/c1ccccc1)OC1CN2CCC1CC2 (stereo unspecified),inactive: 2.88%
19,Cc1nn(-c2ccccc2)c2c1P(=O)(N1CCOCC1)N(C)C(c1ccccc1)=N2 (stereo unspecified),inactive: -0.21%
20,CC1CCC(C(C)C)C(OP(=O)(Nc2ccccn2)c2ccccc2)C1 (stereo unspecified),inactive: 1.98%
21,Cc1ccc(C(=O)OC2CN3CCC2CC3)cc1 (stereo unspecified),inactive: -0.06%
22,O=P(Nc1ccccn1)(c1cccc2ccccc12)c1cccc2ccccc12,inactive: -1.25%
23,Cc1cc(SC(NC=O)C(Cl)(Cl)Cl)ncn1 (stereo unspecified),inactive: 3.07%
24,CCOC(=O)Nc1cccc([As](=O)(O)O)c1,inactive: -1.76%
25,Cc1cc(SC(NC(=O)c2ccccc2)C(Cl)(Cl)Cl)nc(C(C)C)n1 (stereo unspecified),inactive: 3.95%
26,CCOC(=O)Nc1ccc([As](=O)(O)O)c(O)c1,inactive: -1.39%

row,SMILES,activation
1,CCC(C)N(CC(C)C)C(=S)SC(NC(C)=O)C(Cl)(Cl)Cl (stereo unspecified),inactive: 1.35%
2,O=C(OC1CN2CCC1CC2)c1cccc([N+](=O)[O-])c1 (stereo unspecified),inactive: -0.18%
3,CCOC(=O)c1ccc(NC(=O)C(C)(CCl)SC)cc1 (stereo unspecified),inactive: 3.05%
4,O=C(COc1ccccc1)OC1CN2CCC1CC2 (stereo unspecified),inactive: 0.19%
5,O=C(Nc1ccncc1[N+](=O)[O-])c1ccc([N+](=O)[O-])cc1[N+](=O)[O-],inactive: 1.78%
6,COP1(=S)c2c(C)nn(CCC#N)c2N=C(c2ccc(F)cc2)N1C (stereo unspecified),inactive: 0.99%
7,COc1ccc(N/C(=N/P(=O)(N2CCOCC2)N2CCOCC2)N2CCOCC2)cc1,inactive: 0.83%
8,COc1ccc2nc(NP(=O)(c3ccccc3)c3ccccc3)sc2c1,inactive: 8.55%
9,COc1cc(I)ccc1[As](=O)(O)O,inactive: -0.25%
10,Cc1c2c(nc3ccccc13)SC(C(Cl)Cl)C2 (stereo unspecified),inactive: 5.51%
11,O=C(OC1CN2CCC1CC2)C12CC3CC(CC(C3)C1)C2 (stereo unspecified),inactive: 5.86%
12,Cc1cc(=O)[nH]c(N[N+](=O)[O-])n1,inactive: 2.32%
13,CCN(CC)C(=S)SC(NC=O)C(Cl)(Cl)Cl (stereo unspecified),inactive: -1.01%
14,CC(C)NC(=O)NP(=O)(Oc1ccccc1)Oc1ccccc1,inactive: 3.19%
15,O=[N+]([O-])c1cc([N+](=O)[O-])c(-c2ccn[nH]2)s1,inactive: 44.4%
16,ClCCSc1nnc(-c2cccnc2)o1,inactive: 1.41%
17,CC(C)c1ccc(OP(=O)(Nc2ccccn2)Oc2ccccc2F)cc1 (stereo unspecified),inactive: 2.25%
18,Cc1ccc(OP(=O)(Nc2ccc([N+](=O)[O-])cn2)Oc2ccc(C)cc2)cc1,inactive: -0.53%
19,Cc1ccc2nc3c(c(C)c2c1)CC(C(Cl)Cl)S3 (stereo unspecified),inactive: 12.1%
20,O=[As](O)(c1ccc(O)cc1)c1ccccc1O,inactive: 1.38%
21,C[As](=O)(O)c1cccc(C(=O)O)c1,inactive: 1.61%
22,COc1cc(C(=O)NCC2(N3CCOCC3)CCCCC2)ccc1OCC(C)C,inactive: 2.87%
23,CCN(N=Nc1nonc1N)c1nonc1N,inactive: 1.39%
24,O=[N+]([O-])c1cc([N+](=O)[O-])c(CCN2CCOCC2)c([N+](=O)[O-])c1,inactive: 24.9%
25,CCOP(=O)(Nc1ccccc1)OCC,inactive: -1.21%
26,Cc1cc(SC(NC(=O)c2ccc(F)cc2)C(Cl)(Cl)Cl)ncn1 (stereo unspecified),inactive: -2.27%

row,SMILES,activation
1,Cc1ccc(NP(=O)(Oc2ccccc2F)Oc2ccccc2F)nc1,inactive: -1.54%
2,CN(C(=O)Cc1ccc(Cl)c(Cl)c1)[C@H]1CCCC[C@@H]1N1CCCC1,inactive: -0.75%
3,O=P(Nc1nc2ccc(Cl)cc2s1)(c1ccccc1)c1ccccc1,inactive: 6.54%
4,O=C(O)c1ccccc1[As](=O)(O)O,inactive: 1.96%
5,CC(=O)Nc1ccc([As](=O)(O)O)cc1,inactive: 3.99%
6,Oc1ccccc1CNc1ccccn1,inactive: -1.66%
7,Cc1c2non([O-])c-2c(C)[n+](=O)[n+]1[O-],inactive: -0.08%
8,O=C(NC(Sc1ccncn1)C(Cl)(Cl)Cl)c1ccccc1 (stereo unspecified),inactive: 4.77%
9,CC(C)CC(=O)NC(Sc1ccc(Cl)cc1)C(Cl)(Cl)Cl (stereo unspecified),inactive: -1.67%
10,Nc1cc(N)c2nonc2c1[N+](=O)[O-],inactive: 3.21%
11,Clc1ccc(Cl)c(NC2=NCC(CBr)S2)c1 (stereo unspecified),inactive: 0.43%
12,CN1CCCC(OC(=O)C(c2ccccc2)c2ccccc2)C1 (stereo unspecified),inactive: 0.45%
13,COc1ccccc1OP(=O)(Nc1ccc(C)cn1)Oc1ccccc1OC,inactive: 4.37%
14,Cc1ccc(OP(=O)(Nc2nccs2)Oc2ccc(C)cc2)cc1,inactive: -1.61%
15,CN(C(=O)Cc1ccc(Cl)c(Cl)c1)[C@H]1CCCC[C@H]1N1CCCC1,inactive: 5.82%
16,Cc1ccc(N/C(=N/P(=O)(N2CCOCC2)N2CCOCC2)N2CCOCC2)cc1,inactive: 3.06%
17,NC(=O)c1cc([N+](=O)[O-])cc([N+](=O)[O-])c1N,inactive: 4.49%
18,CC1CCN(C(=O)Oc2c(Cl)cc(Cl)c3cccnc23)CC1,inactive: 7.25%
19,CC(C)=N/N=C(\N)N[N+](=O)[O-],inactive: 2.23%
20,CN(C)C(=O)OCCc1n(C)cc[n+]1C,inactive: -1.66%
21,CCN(/C(=N/P(=O)(N1CCOCC1)N1CCOCC1)N1CCOCC1)c1ccc(OC)cc1,inactive: 0.4%
22,Nc1ccc([As](=O)(O)c2ccc(N)cc2)cc1,inactive: -1.94%
23,C[N+]1=C2C=CC=CC=C2SC12C([N+](=O)[O-])=CC([N+](=O)[O-])=C[C-]2[N+](=O)[O-] (stereo unspecified),inactive: 23.3%

# — PubChem BioAssay AID2796 (The Scripps Research Institute Molecular Screening Center, 2010)
